Bioassay records from PubChem.
SR-BI DiI inh: mouse SR-BI HDL lipid transfer inhibition; Q61009; inhibition, % at 12.5 µM; hit rate 0.96% among 320,000; AID 488896; ldlA[mSR-BI] CHO cells, DiI-HDL uptake fluorescence, 3 h;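 active = mean replicate inhibition of at least 70% and a set share of replicates each scoring 70 or more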;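 note: 0% = median of neutral control wells and 100% = median of positive control wells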
SR-BI DiI-HDL act: enhances SR-BI lipid uptake from DiI-HDL; CHO ldlA[mSR-BI] cells, DiI-HDL uptake fluorescence, 3 h; 100 = double the neutral-control signal; activation, % at 12.5 µM; hit rate 0.096% among 320,000;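 active = mean replicate activation of at least 60% and every replicate at or above 60%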;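 note: 0% = median plate neutral-control signal and 100% = twice that signal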
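Material: SR-BI-overexpressing, LDLR-lacking CHO cells; schedule: compound exposure 3 h, 37 °C; reagent: DiI-labelled HDL at 10 µg/mL final; technique: bottom-read fluorescence, 550/595 nm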
GSIS activator: GLuc luminescence reporter in INS-1E cells, primary screen for activators of glucose-dependent secretion of insulin. INS-1E GLuc reporter insulin secretion, 2-3 h. activation, % at 16.6 µM. hit rate 0.61% among 370,000;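 active = lowest replicate activation of at least 40%, so every replicate reaches that level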;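 note: 0% = median of neutral control wells and 100% = median of IBMX positive control wells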
UUG fidelity: modulators of yeast start codon fidelity, primary screen, whole organism, S. cerevisiae, single point, plate reader. S. cerevisiae UUG-firefly luciferase reporter, luminescence/redox ratio. activity score, % at 18.7 µM. hit rate 0.13% among 350,000;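 active = replicate mean at a twofold rise or more, about +100% in these data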;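 also: firefly luciferase made from a UUG start codon reports start codon fidelity; reporter light over untreated wells divided by growth signal over untreated wells; some hits fall short of that in this replicate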
* hit, by the source's call; . = no result given. Most compounds without a hit are left out; they make up all but 1.3% or so of the library.

Field names: A = SR-BI DiI inh; B = SR-BI DiI-HDL act; C = GSIS activator; D = UUG fidelity
> C[C@@H]1CN([C@H](C)CO)C(=O)CCCn2cc(nn2)CO[C@H]1CN(C)Cc1cccc2c1OCCCO2
  A = .; B = .; C = -3; D = 14
> CCN(CC)C(=O)c1sc(NC(=O)c2cccc([N+](=O)[O-])c2)c(C#N)c1C
  A = 28; B = -28; C = 7; D = .
> CCN(CC)C(=O)c1sc(NC(=O)c2c(OC)cccc2OC)c(C#N)c1C
  A = 94*; B = -85; C = 4; D = 1
> CC(C)CNC(=O)[C@@]1(C)c2ccccc2C(=O)N(Cc2ccccc2)[C@H]1c1ccc(CO)cc1
  A = .; B = .; C = .; D = -9
> O=C(C[C@H]1C[C@H]2c3cc(NS(=O)(=O)c4ccc(F)cc4)ccc3O[C@H]2[C@H](CO)O1)NCc1ccccn1
  A = .; B = .; C = 0; D = .
> Cn1c(CCCOc2ccc(Cl)cc2Cl)nnc1SCC(=O)Nc1cccc(F)c1
  A = -26; B = 26; C = 9; D = .
> CCc1cccc(C)c1NC(=O)CSc1nnc(CCCOc2ccc(Cl)cc2Cl)n1C
  A = 75*; B = -75; C = -39; D = -23
> C[C@@H]1CN([C@H](C)CO)C(=O)c2cc(NC(=O)NC3CCCCC3)ccc2O[C@@H](C)CCCCO[C@@H]1CN(C)S(=O)(=O)c1ccccc1
  A = .; B = .; C = -2; D = 1
> C[N+](C)(C)CCCC(=O)c1ccc2c(c1)OCO2
  A = 13; B = 49; C = .; D = 3
> C=C(CN(C)C)C(=O)c1ccc(C)cc1C
  A = 85*; B = -85; C = -32; D = .
> C=C(CN(C)C)C(=O)c1ccc2c(c1)OCO2
  A = 109*; B = -109; C = -19; D = .
> C[C@@H]1CN([C@@H](C)CO)C(=O)Cc2cc(NC(=O)Cc3cn(C)c4ccccc34)ccc2O[C@@H]1CN(C)C(=O)NC1CCCCC1
  A = .; B = .; C = 6; D = 0
> C/C(=N\Nc1cc(C)nc(-c2ccccc2)n1)c1cccc([N+](=O)[O-])c1
  A = 77*; B = -77; C = -1; D = .
> COc1ccc(-c2nc(N/N=C(\C)c3ccc(O)cc3)c3ccccc3n2)cc1
  A = .; B = .; C = 33; D = .
> COc1cc(N/N=C(\C)c2ccc(O)c(C)c2)nc(-c2ccccc2)n1
  A = 92*; B = -92; C = -3; D = .
> C/C(=N\Nc1cc(-c2ccccc2)nc(-c2ccccc2)n1)c1ccc(O)c(C)c1
  A = 94*; B = -94; C = .; D = -9
> C/C(=N\Nc1cc(C)nc(-c2ccccc2O)n1)c1ccccc1
  A = 55; B = -55; C = -7; D = .
> O=[N+]([O-])c1cccc(/C=N/Nc2cc(Cl)nc(-c3ccccc3)n2)c1
  A = 74*; B = -74; C = .; D = -15
> C[C@@H]1CN([C@H](C)CO)C(=O)c2c(c3ccccc3n2C)-c2ccccc2CO[C@H]1CN(C)C(=O)[C@H]1CCCN1C
  A = .; B = .; C = 19; D = .
> COc1ccc2c3c([nH]c2c1)[C@@H](CO)N(Cc1ccccc1)CC31CCN(C(=O)c2cccnc2)CC1
  A = .; B = .; C = 10; D = .

Retrieved one by one from the list above, 2 records:
Field names: A = SR-BI DiI inh; B = SR-BI DiI-HDL act; C = GSIS activator; D = UUG fidelity
> C/C(=N\Nc1cc(-c2ccccc2)nc(-c2ccccc2)n1)c1ccc(O)c(C)c1
  A = 94*; B = -94; C = .; D = -9
> C[C@@H]1CN([C@@H](C)CO)C(=O)Cc2cc(NC(=O)Cc3cn(C)c4ccccc34)ccc2O[C@@H]1CN(C)C(=O)NC1CCCCC1
  A = .; B = .; C = 6; D = 0

(list continues)
Field names: A = SR-BI DiI inh; B = SR-BI DiI-HDL act; C = GSIS activator; D = UUG fidelity
> C[C@@H]1CN([C@H](C)CO)C(=O)c2c(c3ccccc3n2C)-c2ccccc2CO[C@H]1CN(C)S(=O)(=O)c1ccc(C(F)(F)F)cc1
  A = .; B = .; C = 7; D = .
> COc1cc(N/N=C(\C)c2ccc(N)cc2)nc(-c2ccccc2)n1
  A = 79*; B = -79; C = 9; D = .
> CC(=O)Nc1ccc(NC(=O)c2cc(-c3ccccc3)nc3ccccc23)cc1
  A = 75*; B = -75; C = 1; D = 12
> CCn1cc(CNC(=O)c2cc(-c3cc(OC)ccc3OC)nc3ccccc23)c(C)n1
  A = 78*; B = -78; C = 14; D = .
> CC(C)(C)NS(=O)(=O)c1ccc(NC(=O)c2cc(-c3ccccc3)nc3ccccc23)cc1
  A = 37; B = -37; C = .; D = -3
> COc1cc(-c2cc(C(=O)Nc3ccc(O)cc3)c3ccccc3n2)cc(OC)c1OC
  A = .; B = .; C = -17; D = .
> COc1cc(-c2cc(C(=O)Nc3cccc(C(C)=O)c3)c3ccccc3n2)cc(OC)c1OC
  A = 85*; B = -85; C = 19; D = -18
> O=C(NC(=S)Nc1nc2c(s1)CCCC2)c1ccc(C(=O)c2ccccc2)cc1
  A = 76*; B = -76; C = -10; D = -14
> C[C@@H]1CN([C@H](C)CO)C(=O)Cc2cc(NS(=O)(=O)c3ccc(F)cc3)ccc2O[C@H]1CN(C)S(=O)(=O)c1ccccc1
  A = .; B = .; C = 3; D = 1
> O=C(Nc1cccnc1)c1cc(-c2ccc(Br)cc2)nc2ccccc12
  A = 87*; B = -87; C = -11; D = -18

3 structures from above, ordered by number of heavy atoms, rising:
Field names: A = SR-BI DiI inh; B = SR-BI DiI-HDL act; C = GSIS activator; D = UUG fidelity
> C[N+](C)(C)CCCC(=O)c1ccc2c(c1)OCO2
  A = 13; B = 49; C = .; D = 3
> C/C(=N\Nc1cc(C)nc(-c2ccccc2O)n1)c1ccccc1
  A = 55; B = -55; C = -7; D = .
> COc1ccc(-c2nc(N/N=C(\C)c3ccc(O)cc3)c3ccccc3n2)cc1
  A = .; B = .; C = 33; D = .

(further entries)
Each structure is followed by: SR-BI DiI inh | SR-BI DiI-HDL act | GSIS activator | UUG fidelity
COc1ccc(NC(=O)c2cc(CC(C)C)nc3ccccc23)cc1
    76* | -76 | . | -20
COc1ccc(NC(=O)c2cc(-c3ccc(OC)c(OC)c3)nc3ccccc23)c(OC)c1
    95* | -95 | 7 | -15
C/C(=N\NC(=O)c1cc(-c2cccnc2)nc2ccccc12)c1ccccc1O
    107* | -107 | 9 | -20
CN1c2ccc(C3=CCCCC3)cc2[C@@H]2[C@@H](CCN2C(=O)Nc2ccccc2F)[C@@H]1CO
    . | . | 12 | -15
CC(C)NC(=O)Nc1ccc2c(c1)C(=O)N([C@H](C)CO)C[C@H](C)[C@H](CN(C)CC1CC1)OCCCC[C@H](C)O2
    . | . | 29 | .
COc1ccc(S(=O)(=O)N(C)C[C@H]2Oc3ccc(NC(=O)Cn4cnnn4)cc3C(=O)N([C@@H](C)CO)C[C@@H]2C)cc1
    . | . | 6 | 6
Cc1noc(C)c1NC(=O)Nc1ccc2c(c1)CC(=O)N([C@@H](C)CO)C[C@@H](C)[C@H](CN(C)S(=O)(=O)c1ccccc1)O2
    . | . | -2 | 25
CCCOc1cccc(-c2cc(C(=O)N/N=C/c3ccccn3)c3ccccc3n2)c1
    52 | -52 | -17 | -9
O=C(Nc1nc2c(s1)CCCC2)c1cc(-c2ccncc2)nc2ccccc12
    76* | -76 | 16 | -9
CCCOc1cccc(-c2cc(C(=O)NN)c3ccccc3n2)c1
    84* | -84 | 4 | .
O=C(Nc1nc2c(s1)CCCC2)c1cc(-c2ccccc2)nc2ccccc12
    39 | -39 | -19 | .
C[C@H](CO)N1C[C@H](C)[C@H](CN(C)C)Oc2ccc(NC(=O)C3CCCCC3)cc2CC1=O
    . | . | 10 | -4
CCC(=O)Nc1ccc(NC(=S)NC(=O)c2oc3ccccc3c2C)cc1
    -3 | 3 | 60* | -10
CC(=O)Nc1ccc(NC(=S)NC(=O)c2oc3ccccc3c2C)cc1
    17 | -17 | 10 | -16
C[C@H]1CN([C@@H](C)CO)S(=O)(=O)c2ccc(-c3ccc(F)cc3)cc2O[C@H]1CN(C)C
    . | . | 11 | -11
Cc1cc(C)cc(OCc2nnc(SCC(=O)N3CCN(c4ccccc4)CC3)o2)c1
    79* | -79 | . | -21
O=C(CSc1nnc(COc2ccccc2)o1)N1CCN(c2ccccc2)CC1
    18 | -18 | -2 | .
COc1ccc(CN(C)C[C@H]2OCCCC[C@@H](C)Oc3ccc(NC(=O)CCC(F)(F)F)cc3C(=O)N([C@@H](C)CO)C[C@H]2C)cc1
    . | . | -7 | -1
CC=Cc1ccc2n(c1=O)C[C@H]1[C@H](CO)[C@@H](C(=O)NC3CCC3)N(S(C)(=O)=O)[C@@H]21 (mixture of isomers)
    . | . | 2 | .
CCN(CC)CCn1c(=N)n(CC(O)COc2ccccc2)c2ccccc21 (stereo unspecified)
    -3 | 3 | 51* | -7
NC(N)=N/N=C/c1ccc(OCc2ccccc2)c(OCc2ccccc2)c1
    . | . | 439* | -15
NC(N)=N/N=C/c1ccccc1
    -15 | 15 | . | .
NC(N)=N/N=C/c1ccc(OCc2ccccc2Cl)cc1
    6 | -6 | 51* | -13
